Data taken from patent US5783179A, “C-reactive protein fragment with immunomodulatory activity” (Syntex (U.S.A.) Inc., priority 1991, dated 1998).

Tested on: T241 fibrosarcoma
Assay: Survival studies with T241 fibrosarcoma
Type: in vivo, mice
Conditions: 90 days after tumor implantation; groups of 30 animals; treatment after removal of primary tumor at day 17
Experimental: The experimental protocol for these studies was similar to that of Example 3, with the exception that animals were observed over a period of 90 days following tumor implantation. Animals dying during that period were examined for lung metastases. At Day 90, all the surviving animals were killed and then examined for lung metastases.
Animals were treated following removal of primary tumors 17 days after tumor implantation. Treatments consisted of: 1) No treatment; 2) MLV containing synthetic CRP peptide (SEQ ID No:1) (2.5 μmoles lipid containing 0.25 μg peptide, i.v. 3 times per week for 2 weeks); 3) soluble rIL-2 (10,000 U i.p. 5 consecutive times per week for 16 days for a total of 12 injections); and 4) regimens 2 and 3 together. Data represent percentage survival for groups of 30 animals at 90 days. CRP-Peptide MLV+rIL-2 vs all other groups, p=0.0001. CRP-peptide MLV vs control, p=0.0001 (Logrank Test).

## regimen 3: soluble recombinant interleukin-2 (Cetus Corp.), 10,000 U i.p., 12 injections
  percentage survival through the 90-day period: 17%
